A selection: hits, their analogues and other compounds. The true share with any hit is near 3.7%.
ClpP mod: qHTS Assay for Activators of ClpP; ATP-dependent Clp protease proteolytic subunit (Bacillus subtilis (strain 168)), P80244; purified B. subtilis ClpP, FRET peptide cleavage, 20 min; Potency, µM (doses to about 57.5 µM); actives 1.9% (n = 340,000); AID 651965, 2013; active means well fitted falling curve with a large enough effect; inconclusive means small, poorly fitted or top-dose-only effect; inactive means no such curve, though single readings can be large or run the other way; further: the source files actives as falling curves though it sought activators and does not explain the sign; nearly all actives have a fitted effect of over 65% in size
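ClpP 10 microg/mL final, pH 8 Tris/KCl buffer with BSA, glycerol, Tween-20; compound pinned in; FRET-FV substrate; RT 20 min; Ex320/Em430; ΔFRET vs ADEP 5.8 microM, DMSO, no enzyme.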
A549 viability: counter-screen for Nrf2 inhibitors: cytotoxicity in A549 cells; actives 0.16% (n = 390,000); A549 ARE-Fluc cells, CellTiter-Fluor viability, 18-24 h; Potency, µM (doses to about 46 µM), hits mostly inhibitors
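A549 ARE-Fluc cells in 5% FBS OPTI-MEM, 5000 cells/well, rested 2 h then exposed to compounds in concentration-response for 18-24 h at 37 °C. Viability by CellTiter-Fluor fluorescence (Ex 405/Em 525) after 30 min; luciferase luminescence (BugLite, 15 min, RT) read afterwards.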
Nrf2 activator: activates Nrf2 signaling; AREc32 ARE-luciferase reporter (MCF7-derived line), luminescence, 24 h; actives 0.31% (n = 410,000); Potency, µM (series often up to 46.1 µM), most hits filed as activators; AID 624171; further: nearly all actives have a fitted effect of over 65% in size
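Steps: seed AREc32_Fluc cells (1000/well, 5% FBS OPTI-MEM); incubate overnight at 37 deg C; add 23 nL compound; incubate 24 hr; add Steady-Glo; hold 30 min RT; read luminescence.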
miR-21 reporter: raises the signal of a miR-21 reporter | HeLa miR-21 FLuc reporter, luciferase, 48 h | Potency, µM (highest dose often 38.3 µM) | 340,000 tested, under 10 active | AID 2288; active = well fitted rising curve with a large enough effect; inconclusive = small, poorly fitted or top-dose-only effect; inactive = no such curve, though single readings can be large or run the other way;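 note: miR-21 action dims this reporter so a rising signal means less miR-21 action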
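Luminescence from a firefly luciferase reporter carrying a miR-21 binding site downstream, stably expressed under a CMV promoter in HeLa cells that make miR-21 endogenously, reports miRNA modulation after 48 h compound exposure up to approximately 40uM final.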
Nrf2 inh: inhibitors of Nrf2 signaling | Potency, µM (doses to about 46 µM), usual class: inhibitors | AID 504444 | A549 ARE-Fluc reporter, luciferase luminescence, 18-24 h | actives 2.1% (n = 360,000); further: nearly all actives have a fitted effect of over 60% in size
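Two sequential reads on A549 ARE_Fluc cells exposed to compound for 18-24 h: a CellTiter-Fluor fluorescence read for viability, then a luciferase luminescence read for Nrf2/ARE activity.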
p53 reactivation: mutant p53 re-activation in reporter cells | actives 0.063% (n = 320,000) | H1299 p53-A138V BP100-luciferase reporter, luminescence, 24 h | Potency, µM (highest dose often 92.2 µM), most hits filed as activators; further: nearly all actives have a fitted effect of over 45% in size
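H1299 (p53-null), stable ts p53-A138V + BP100-Luc; 1000 cells/well, Opti-MEM/10% FBS; cpd 4 pt, 1:5; 24 h, 37 deg C, 5% CO2; detection reagent 10 min RT; luminescence.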
Numbers stand for hits; - = inactive; ? = inconclusive; . = not tested or not shown; [ ] = another dose, or the depositor's remark. Unless noted, the call rests on the fitted dose curve; in most records, active means well fitted curve in the direction sought with a large enough effect; inconclusive means small, poorly fitted or top-dose-only effect, or another doubt; inactive means no such curve, though single readings can be large; an effect the other way counts as inactive or inconclusive.

SMILES | ClpP mod | A549 viability | Nrf2 activator | miR-21 reporter | Nrf2 inh | p53 reactivation
CCC(=O)N1c2ccc(S(=O)(=O)N3CCN(c4cc(C)ccc4C)CC3)cc2CC1C (stereo not given) | - | - | - | - | 16µM | -
Cc1cccc(NC(=O)C2CCN(S(=O)(=O)c3ccc4ccccc4c3)CC2)n1 | - | - | - | . | 16µM | -
CC(=O)N1c2c(cc(Br)cc2S(=O)(=O)N2CCN(c3cc(C)ccc3C)CC2)CC1C (stereo not given) | - | - | - | - | -[9.27 µM] | .
O=C(Nc1cccc(F)c1)C1CCN(S(=O)(=O)c2ccc3[nH]c4c(c3c2)CCCCC4)CC1 | ? | - | - | ? | 18µM | .
Cc1cccc(NC(=O)C2CCN(S(=O)(=O)c3ccc(Cl)cc3)CC2)n1 | - | - | - | . | ? | -
CSc1cccc(NC(=O)C2CCN(S(=O)(=O)c3ccc4[nH]c5c(c4c3)CCCCC5)CC2)c1 | ? | - | - | - | ? | .
CC(=O)N1c2c(cc(Br)cc2S(=O)(=O)N2CCN(c3ccccc3F)CC2)CC1C (stereo not given) | . | - | - | - | 23µM | -
CC(=O)OCC(NC(=O)C(COCc1ccccc1)NC(=O)OC(C)(C)C)C1OC(n2ccc(=O)[nH]c2=O)C(OC(C)=O)C1OC(C)=O (stereo not given) | . | - | . | . | - | .
COc1ccc(NC(=O)Cn2c(=O)n(Cc3ccco3)c(=O)c3sc4ccccc4c32)cc1OC | - | - | - | - | - | .
CC1Cc2ccccc2N1C(=O)c1ccc(F)c(S(=O)(=O)N2CCOCC2)c1 (stereo not given) | 28µM | - | - | . | - | -
CCc1ccc(NC(=O)C2CCN(S(=O)(=O)c3ccc4c(c3)CC(C)N4C(C)=O)CC2)cc1 (stereo not given) | - | - | - | ? | 16µM | .
Cn1c(=O)oc2cc(S(=O)(=O)N3CCC(C(=O)N4CCN(c5ccc(Cl)cc5)CC4)CC3)ccc21 | - | - | - | - | 18µM | .
COc1ccc(NC(=O)Cn2c(=O)oc3cc(S(=O)(=O)N4CCCCC4C)ccc32)cc1 (stereo not given) | - | - | - | - | . | .
CCc1ccccc1NC(=O)CN1C(=O)CCc2cc(S(=O)(=O)N3CCCCC3)ccc21 | - | - | - | - | . | .
Cc1nn(C)cc1CN(C)Cc1ccc(OCC(O)CN2CCCCC2)cc1 (stereo not given) | - | - | - | - | - | -
CN(Cc1ccc(OCC(O)CN2CCCCC2)cc1)Cc1ccnc2ccccc12 (stereo not given) | - | - | - | - | 5.8µM | -
COc1ccc(NC(=O)C2(C)Cc3c(-c4ccc(N(C)C)cc4)ccnc3O2)cc1 (stereo not given) | - | . | - | . | . | .
O=C(NCCc1ccccc1)c1ccc2c(c1)OCCCO2 | - | - | - | ? | 2.1µM | -
Cc1ccc(N2C(=O)CSC23C(=O)N(CC(=O)NC2CCCCC2)c2ccccc23)cc1 (stereo not given) | - | - | - | - | ? | .
COc1ccc(/C=C/C(=O)NCc2cn(C)nc2C)cc1COc1ccc(Br)cc1 | - | - | - | - | 18µM | -
Cc1nn(C)cc1CNC(=O)/C=C/c1cnn(C)c1 | - | - | - | - | - | -
COc1ccc(CC2C(=O)NC(C)C(=O)N(C)C3Cc4ccc(cc4)Oc4cc(ccc4O)CC(C(=O)NC(C)C(=O)NC(C)C(=O)N2C)N(C)C3=O)cc1 (stereo not given) | - | 2.3µM | - | . | 1.6µM | .
CC(=O)N1CCc2c(sc3c2c(=O)n(CCc2ccccc2)c(=O)n3Cc2ccccc2C)C1 | - | - | - | - | 18µM | .
CC(=O)N1CCc2c(sc3c2c(=O)n(CCc2ccccc2)c(=O)n3Cc2ccc(Cl)cc2)C1 | - | - | - | - | ? | .
O=C1c2cccc(NCCCNCCO)c2C(=O)c2cccc(NCCCNCCO)c21 | - | 18µM | - | . | ? | .
SMILES | ClpP mod | A549 viability | Nrf2 activator | miR-21 reporter | Nrf2 inh | p53 reactivation
Cn1cccc1CC(=O)N/N=C/c1cccc2ccccc12 | - | - | - | - | - | -
Cn1cccc1/C=N/NC(=O)Cc1cccc2ccccc12 | . | - | - | - | 18µM | -
CCc1cccc(NC(=O)c2coc(=O)c3ccccc23)c1 | - | - | - | ? | -[9.27 µM] | .
Cc1ccc(S(=O)(=O)NNC(=S)Nc2ccc(Cl)cc2)cc1 | 28µM | - | - | - | - | -
CCCCc1c(CCC)c(=N)c2ccccc2n1C | 16µM | - | - | - | - | -
CCCCc1c(O)c2ccccc2n(CCCC)c1=O | - | - | - | - | - | -
COc1ccccc1CNC(=O)CCn1c(=O)c2cccn2c2cccnc21 | ? | - | - | - | - | .
COCCNC(=O)c1cn(CCOC)c(=O)c2c1c1ccccc1n2C | - | - | - | - | - | -
COCCCNC(=O)c1cn(CC(C)C)c(=O)c2c1c1ccccc1n2C | 32µM | - | - | - | ? | -
O=C(c1ccco1)N1CCN(CC(O)Cn2c3ccccc3c3ccccc32)CC1 (stereo not given) | 28µM | - | - | - | - | -
Cn1cc(C(=O)N2CCN(C(=O)c3ccco3)CC2)c2c3ccccc3n(C)c2c1=O | 14µM | -[1.84 µM] | - | - | ? | -
CCN1CCN(C(=O)c2cn(CCOC)c(=O)c3c2c2ccccc2n3C)CC1 | ? | - | - | - | . | -
CC(C)Cn1cc(C(=O)NCCCN2CCC(C)CC2)c2c3ccccc3n(C)c2c1=O | . | - | - | . | - | .
CC(C)Cn1cc(C(=O)NCCCN2CCCC2=O)c2c3ccccc3n(C)c2c1=O | 16µM | - | - | - | . | -
CCOC(=O)C1(C)CCCCCN1C(=O)c1ccccc1F (stereo not given) | - | . | -[9.22 µM] | . | . | .
COCCCNC(=O)c1cn(CCOC)c(=O)c2c1c1ccccc1n2C | - | - | - | - | - | -
COCCn1cc(C(=O)NCCCOC(C)C)c2c3ccccc3n(C)c2c1=O | 32µM | - | - | - | - | -
CC(C)Cn1cc(C(=O)N2CCN(c3ccccn3)CC2)c2c3ccccc3n(C)c2c1=O | 16µM | - | - | - | . | -
CCOC(=O)C1CCN(C(=O)c2cn(CCOC)c(=O)c3c2c2ccccc2n3C)CC1 | 7.9µM | - | - | - | - | -
CCCCN(C)C(=O)C1CCC(Cn2c(=O)[nH]c3ccsc3c2=O)CC1 (stereo not given) | - | - | - | ? | - | .
Cn1ncc2c(N3CCN(c4ccc(F)cc4)CC3)ncnc21 | - | - | - | - | . | .
